The species entered for the experiment is Homo sapiens. Put plainly: Ratio of Ki for human recombinant AChE to Ki for human recombinant BuChE.
In the case of `c1ccc2c(NCCCCNCCCSc3c4c(nc5ccccc35)CCCC4)c3c(nc2c1)CCCC3`, the Ratio Ki turned out to be 3.42.

Take `c1ccc2c(NCCc3cocc3CCNc3c4c(nc5ccccc35)CCCC4)c3c(nc2c1)CCCC3`: the Ratio Ki turned out to be 1.82.

For the compound `c1cc(CCNc2c3c(nc4ccccc24)CCCC3)cc(CCNc2c3c(nc4ccccc24)CCCC3)c1`, the Ratio Ki turned out to be 1.86.

As for `OCCN(CCCCNc1c2c(nc3ccccc13)CCCC2)CCCNc1c2c(nc3ccccc13)CCCC2`, the Ratio Ki was 0.1.

`CN(CCCNc1c2c(nc3ccccc13)CCCC2)CCCNc1c2c(nc3ccccc13)CCCC2`: the Ratio Ki amounted to 0.04.

With `c1ccc2c(NCCc3ccc(CCNc4c5c(nc6ccccc46)CCCC5)cc3)c3c(nc2c1)CCCC3`, the Ratio Ki amounted to 0.12.

For the compound `c1cc(CCNc2c3c(nc4ccccc24)CCCC3)nc(CCNc2c3c(nc4ccccc24)CCCC3)c1`, the Ratio Ki was 0.41.

For `CC(=O)N(CCCCNc1c2c(nc3ccccc13)CCCC2)CCCSc1c2c(nc3ccccc13)CCCC2`, the Ratio Ki worked out at 77.

Regarding `Cc1cc(CCNc2c3c(nc4ccccc24)CCCC3)cc(CCNc2c3c(nc4ccccc24)CCCC3)c1`, the Ratio Ki stood at 1.48.

Take `c1ccc2c(NCCCN3CCN(CCCNc4c5c(nc6ccccc46)CCCC5)CC3)c3c(nc2c1)CCCC3`: the Ratio Ki stood at 0.03.

As for `CN(CCCCSc1c2c(nc3ccccc13)CCCC2)CCCNc1c2c(nc3ccccc13)CCCC2`, the Ratio Ki came out at 0.46.

As for `CC(=O)N(CCCCNc1c2c(nc3ccccc13)CCCC2)CCCNc1c2c(nc3ccccc13)CCCC2`, the Ratio Ki was found to be 0.34.

As for `CN(CCCCNc1c2c(nc3ccccc13)CCCC2)CCCNc1c2c(nc3ccccc13)CCCC2`, the Ratio Ki came to 0.01.

`c1ccc2c(NCCCCCCCCSc3c4c(nc5ccccc35)CCCC4)c3c(nc2c1)CCCC3`: the Ratio Ki is 16.9.

On to `CC(=O)N(CCCCSc1c2c(nc3ccccc13)CCCC2)CCCNc1c2c(nc3ccccc13)CCCC2`, for which the Ratio Ki stood at 6.96.

`C=CCN(CCCCNc1c2c(nc3ccccc13)CCCC2)CCCNc1c2c(nc3ccccc13)CCCC2`: the Ratio Ki worked out at 0.02.

In the case of `CCN(CCCCNc1c2c(nc3ccccc13)CCCC2)CCCNc1c2c(nc3ccccc13)CCCC2`, the Ratio Ki worked out at 0.37.

Consider `CC(=O)N(CCCNc1c2c(nc3ccccc13)CCCC2)CCCSc1c2c(nc3ccccc13)CCCC2`, for which the Ratio Ki was 4.27.

Source of the values: ChEMBL document CHEMBL1150386 (J Med Chem, 2008).
